The source of these data is PubChem BioAssay AID588475 (Sanford-Burnham Center for Chemical Genomics, 2011).

Molecules are shown by their SMILES. Only a part is listed here, and it is no random draw. Some tests of the compounds listed are not included; inactive here does not mean inactive elsewhere. The source made the active and inactive calls.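 Rule for the calls: active = inhibition of the ligand-induced calcium signal above about 50% at the single tested concentration (limit read from the data); inactive = the rest.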

The nature of the assay: blockers of CRF-evoked CRF-R2/CRF-BP calcium response – cell-based, HEK293, calcium dye fluorescence, uHTS, primary screen (AID 588475). The note with it: CRF-induced calcium fluorescence, at 11.8 µM, hits give high values.
The term inhibition denotes the relative decrease from the control value, in per cent. Take `COc1ccc(C(=O)NCC2(N(C)C)CCCCC2)cc1`: the inhibition is inactive: 2.2%.
The value for `O=C(NCC1(N2CCCCC2)CCCCC1)c1cccc(Br)c1` was inactive: 7.39%.
The value for `Cc1cc(C(=O)NCC2(N3CCCCC3)CCCCC2)ccc1[N+](=O)[O-]` was inactive: 0.51%; that for `CCN1CCCC(OC(=O)C2(O)c3ccccc3C=Cc3ccccc32)C1` (stereo unspecified) was inactive: -27.8%.
In the case of `O=C(NCC1(N2CCCCC2)CCCCC1)c1cc(F)c(F)cc1Cl` it was inactive: -2.97%; in that of `C=CCN1CCN(CCOC(=O)C(O)(c2ccccc2)c2ccccc2)CC1`, inactive: 18%.
For `CN(C)C1CCCC1OC(=O)C(O)(c1ccccc1)c1ccccc1` (stereo unspecified), the inhibition is inactive: -10.5%.
The value for `CN(C)c1ccc(C(=O)NCC2(N(C)C)CCCCC2)cc1` was inactive: 5.06%.
The value for `Cc1ccccc1C(=O)NCC1(N2CCCCC2)CCCCC1` was inactive: 4.19%; that for `Cc1ccc(C(=O)NCC2(N3CCCCC3)CCCCC2)cc1` was inactive: 12.5%.
In the case of `COc1cc(SC)ccc1C(=O)NCC1(N(C)C)CCCCC1` it was inactive: 6.54%.
For the molecule `CCN(CC)CC(C)C(C)OC(=O)C(O)(c1ccccc1)c1ccccc1` (stereo unspecified), the inhibition was inactive: -5.18%.
In the case of `CC(C)N1C(=O)CC2(CCN(CCOC(=O)C(O)(c3ccccc3)c3ccccc3)CC2)C1=O` it was inactive: -6.68%; in that of `CN1[C@@H]2CC[C@H]1CC(OC(=O)C(O)(c1ccccc1)c1ccccc1)C2` (stereo partly specified), inactive: -5%.
`O=C(NCC1(N2CCCCC2)CCCCC1)c1cc([N+](=O)[O-])ccc1Cl`: the inhibition is inactive: -9.78%.
Turning to `O=C(OCCN1CCCC1)C(O)(c1ccccc1)c1ccccc1`, the inhibition is inactive: 3.33%.
In the case of `CC(C)Oc1ccc(C(=O)NCC2(N(C)C)CCCCC2)cc1` it was inactive: -5.39%; in that of `CN(C)c1cccc(C(=O)NCC2(N(C)C)CCCCC2)c1`, inactive: 14.6%; in that of `C=C(C)C#CC(O)(C(=O)OC1CCN(C)CC1)c1ccccc1` (stereo unspecified), inactive: -20.3%.
In the case of `COc1ccc(Br)c(C(=O)NCC2(N3CCCCC3)CCCCC2)c1` it was inactive: -9.28%.
In the case of `O=C(OC1CN2CCC1CC2)C(CO)(c1ccccc1)c1ccccc1` (stereo unspecified) it was inactive: 12.3%; in that of `O=C(NCC1(N2CCCCC2)CCCCC1)c1cccc(Cl)c1`, inactive: -9.64%.
As to `COc1ccc(Cl)cc1C(=O)NCC1(N(C)C)CCCCC1`, the inhibition is inactive: 12.9%.
Turning to `COc1cccc(C(=O)NCC2(N3CCCCC3)CCCCC2)c1`, the inhibition is inactive: 11.1%.
As to `COc1cc(C(=O)NCC2(N(C)C)CCCCC2)c([N+](=O)[O-])cc1OC`, the inhibition is inactive: -4.83%.
The value for `CN(C)C1(CNC(=O)c2ccc(Br)cc2)CCCCC1` was inactive: 1.13%.
